The values that follow are results of earlier work, collected in patent EP1223952B1, “METHODS FOR TREATMENT OF SOLID TUMORS AND METASTASIS BY GENE THERAPY” (Aguilar-Cordova, Carlos, Estuardo, priority 1999, dated 2001).

For this data set the following is noted: in vivo.

For the substance leuprolide acetate [Lupron Depot], the “Elevation of SGOT (> 2 x normal)” value was 5.4%, the “Elevation of alkaline phosphatase (>1.5 x normal)” value was 5.4%, the asthenia is 5.4% and the decreased testicular size is given as 5.4%. The dyspnea is listed as 5.4%, the edema was 12.5%, the general pain was 7.1% and the hot flashes/sweats is 58.9%. Moreover, the impotence is recorded as 5.4% and the nausea/vomiting was 5.4%.
